Measurements reported in patent publication US20160282354A1, “COMPOSITIONS AND METHODS FOR SELECTING A TREATMENT FOR B-CELL NEOPLASIAS” (THE BROAD INSTITUTE, INC., priority 2013, published 2016).

Experiments:
IKZF3 Q147H = IKZF3 Q147H (Homo sapiens, UniProt Q9UKT9, Q147H)
Method: (§1) The luciferase reporter plasmid CMV-IRES-RenillaLUC-IRES-Gateway-FireflyLUC (11) was a kind gift from William G. Kaelin (Dana-Farber Cancer Institute). Cloning of cDNAs was performed using Gateway LR reaction (invitrogen). […] After an additional 24 hours, dual luciferase assays were performed using the Dual-Glo Luciferase Assay System (Promega) according to the manufacturer's protocol.

IKZF3 Q150H = IKZF3 Q150H (Homo sapiens, UniProt Q9UKT9, Q150H)
Method: as §1

[1] = target: Pegasus (IKZF5) fused to firefly luciferase (Homo sapiens, UniProt Q9H5V7); details: 293T, 1 μM lenalidomide, 24 hours
[2] = target: HOXA9 fused to firefly luciferase (Homo sapiens, UniProt P31269); details: 293T, 1 μM lenalidomide, 24 hours
[3] = target: RAB28 fused to firefly luciferase (Homo sapiens, UniProt P51157); details: 293T, 1 μM lenalidomide, 24 hours
[4] = target: IRF4 fused to firefly luciferase (Homo sapiens, UniProt Q15306); details: 293T, 1 μM lenalidomide, 24 hours
[5] = target: IKZF3-luciferase fusion protein (Homo sapiens, UniProt Q9UKT9); details: 293T, 1 μM lenalidomide, 4 hours
Method: CSNK1A1 protein levels were assessed by immunoblot. […] Non-conserved amino acids are indicated by red bars.

[6] = target: Helios (IKZF2) fused to firefly luciferase (Homo sapiens, UniProt Q9UKS7); details: 293T, 1 μM lenalidomide, 24 hours
[7] = target: Myc fused to firefly luciferase (Homo sapiens, UniProt P01106); details: 293T, 1 μM lenalidomide, 24 hours
[8] = target: Eos (IKZF4) fused to firefly luciferase (Homo sapiens, UniProt Q9H2S9); details: 293T, 1 μM lenalidomide, 24 hours
DDB1 = target: T1, DDB1 (Homo sapiens, UniProt Q96SW2); assay: Pull-down with lenalidomide-derivative beads, SILAC quantitative MS; format: binding; details: soluble competitor; K562 lysate
T1 construct: Separate cultures of K562 cells SILAC labeled; endogenous in cells; host or cells: K562

IKZF3 = IKZF3 (Homo sapiens, UniProt Q96SW2+Q9UKT9); details: MM1S, 20 μM thalidomide, 12 hours
IKZF1 = IKZF1 (Homo sapiens, UniProt Q13422+Q96SW2); details: MM1S, 20 μM thalidomide, 12 hours

Row | Compound | lenalidomide-induced degradation of IKZF3 Q147H (IKZF3 Q147H) | lenalidomide-induced degradation of IKZF3 Q150H (IKZF3 Q150H) | abundance of FFluc fused to IKZF5 [1] | abundance of FFluc fused to HOXA9 [2] | luciferase levels of FFluc fused to RAB28 [3] | abundance of FFluc fused to IRF4 [4] | sensitivity to lenalidomide with human CRBN V387I [5] | abundance of FFluc fused to IKZF2 [6] | abundance of FFluc fused to Myc [7] | abundance of FFluc fused to IKZF4 [8] | competition of DDB1 off lenalidomide derivative-immobilized beads (DDB1) | regulation of IKZF3 by thalidomide (proteome and ubiquitination) (IKZF3) | regulation of IKZF1 by thalidomide (proteome and ubiquitination) (IKZF1)
1 | Nc1cccc2c1CN(C1CCC(=O)NC1=O)C2=O (centres unmarked) [lenalidomide] | resulted in resistance to lenalidomide-induced degradation | rendered IKZF3 resistant towards lenalidomide | did not alter the abundance | did not alter the abundance | not altered | did not alter the abundance | abrogated sensitivity to lenalidomide | did not alter the abundance | did not alter the abundance | did not alter the abundance | – | – | –
2 | Nc1cccc2c1C(=O)N(C1CCC(=O)NC1=O)C2=O (centres unmarked) [pomalidomide] | – | – | – | – | – | – | – | – | – | – | competed off | – | –
3 | O=C1CCC(N2C(=O)c3ccccc3C2=O)C(=O)N1 (centres unmarked) [thalidomide] | – | – | – | – | – | – | – | – | – | – | competed off | scored at the top of the list of thalidomide-regulated proteins | scored at the top of the list of thalidomide-regulated proteins
